Source: patent US11236085B2, “PD-1/PD-L1 inhibitors” (Gilead Sciences, Inc., priority 2018, dated 2022)

Protein sequences, listed by entry. Tags and fused reporters are not part of them. Residues count along the entry.
UniProt Q9NZQ7, 19-238 limits assumed: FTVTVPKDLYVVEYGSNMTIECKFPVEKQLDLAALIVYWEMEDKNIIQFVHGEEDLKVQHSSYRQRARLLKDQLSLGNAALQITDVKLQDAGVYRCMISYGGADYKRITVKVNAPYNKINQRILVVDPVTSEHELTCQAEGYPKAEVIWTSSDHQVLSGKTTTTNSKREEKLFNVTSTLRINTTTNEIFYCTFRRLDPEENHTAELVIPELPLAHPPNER
UniProt Q9NZQ7, 19-290 limits assumed: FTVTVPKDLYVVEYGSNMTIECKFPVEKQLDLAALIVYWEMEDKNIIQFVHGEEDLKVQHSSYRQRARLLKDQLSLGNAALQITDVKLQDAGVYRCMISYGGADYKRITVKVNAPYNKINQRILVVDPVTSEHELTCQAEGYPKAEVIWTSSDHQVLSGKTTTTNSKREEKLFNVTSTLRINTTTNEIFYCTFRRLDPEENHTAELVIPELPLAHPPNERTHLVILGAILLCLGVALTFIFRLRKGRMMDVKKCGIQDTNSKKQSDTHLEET

Columns and labels:
PD-1/PD-L1 [1] = biological target: T1, PD-1/PD-L1 (Homo sapiens, UniProt Q9NZQ7); test: PD-1/PD-L1 NFAT reporter assay (co-culture of aAPC-PD-L1 CHO cells and Jurkat cells overexpressing PD-1, NFAT luciferase); conditions: read-out: EC50 NFAT Luciferase; co-culture incubated for 6 hrs at 37° C.; luciferase under NFAT control
Experimental: PD-1/PD-L1 NFAT Reporter Assay
Compounds were tested in a functional co-culture reporter assay in which TCR-mediated NFAT activity is inhibited by the engagement of PD-1 with PD-L1. […] CHO cells expressing surface-bound anti-CD3 antibodies and PD-L1 (artificial antigen presenting cells, aAPC-PD-L1) were first seeded overnight. Jurkat cells overexpressing PD-1 and expressing a luciferase construct under NFAT control are diluted in RPMI assay medium (RPMI 1640 with 2% FBS), mixed with compounds, and immediately seeded on the monolayer of aAPC-PD-L1. The co-culture is then incubated for 6 hrs at 37° C. Luciferase activity is assessed by adding the ONE-Glo reagent and measuring luminescence with a plate reader. EC50 values are calculated from the fit of the dose-response curves to a four-parameter equation (Table 4).

PD-L1 = PD-L1 (Homo sapiens, UniProt Q9NZQ7); test: PD-L1/PD-L1 dimerization biochemical protein-protein interaction assay (ALPHA); conditions: read-out: AC50 PDL1 Dimer 1 nM; 0.5 nM His tagged PD-L1 and 0.5 nM FLAG tagged PD-L1; compound induced dimerization
Experimental: PD-L1/PD-L1 Dimerization Biochemical Protein-Protein Interaction Assay
Compounds were tested in biochemical protein-protein interaction assays to determine if they can specifically dimerize the extracellular domains of PD-L1. Dimerization of the proteins (His-tagged PD-L1 and FLAG-tagged PD-L1) is measured using a bead based Amplified Luminescent Proximity Homogeneous Assay (ALPHA) platform. […] Assays are performed in 25 mM Hepes (pH 7.4), 150 mM NaCl, 3.4 mM EDTA, 0.005% Tween 20, and 0.01% BSA. Final protein concentration in the assays were 0.5 nM (His tagged PD-L1) and 0.5 nM (FLAG tagged PD-L1). After an assay reaction time of 2 hours at 25° C., 20 μg/mL (final assay concentration) ALPHA assay acceptor beads (anti-His coated) were added and incubated for 60 minutes at 25° C. Binding was measured following a final 60 minute incubation with 40 μg/mL (final assay concentration) ALPHA assay donor beads (anti-FLAG coated). AC50 values were calculated from the fit of the dose-response curves to a four-parameter equation (Table 4).

PD-1/PD-L1 [2] = biological target: T1, PD-1/PD-L1; test: PD-1/PD-L1 biochemical protein-protein interaction assay (ALPHA); conditions: read-out: IC50 PD-L1-PD1; 0.3 nM His tagged PD-L1, 2.5 nM biotinylated Fc-PD-1; 60 minutes at 25° C.
Experimental: PD-1/PD-L1 & CTLA/CD80 Biochemical Protein-Protein Interaction Assay
Compounds were tested in biochemical protein-protein interaction assays to determine if they can specifically block the interaction between the extracellular domains of PD-1/PD-L1 or CTLA/CD80. Binding of the protein pairs is measured using a bead based Amplified Luminescent Proximity Homogeneous Assay (ALPHA) platform. Binding of each protein pair results in proximity of the donor and acceptor beads which leads to an increase in ALPHA signal. Disruption of the protein-protein interaction with a test compound results in a decrease in ALPHA signal. Assays are performed in 25 mM Hepes (pH 7.4), 150 mM NaCl, 3.4 mM EDTA, 0.005% Tween 20, and 0.01% BSA. Final protein concentration in the assays were 0.3 nM (His tagged PD-L1), 2.5 nM (biotinylated Fc-PD-1), 1 nM (His tagged CTLA4) and 1 nM (biotinylated CD80). After an assay reaction time of 60 minutes at 25° C., binding was measured with addition of 20 μg/mL ALPHA assay acceptor beads (anti-His coated) and 20 µg/mL ALPHA assay donor beads (streptavidin coated). IC50 values were calculated from the fit of the dose-response curves to a four-parameter equation. Representative data are shown below in Table 3.

EC50 (PD-1/PD-L1 [1]): 70 nM
AC50 (PD-L1): 11.4 nM
IC50 (PD-1/PD-L1 [2]): 0.064 nM
SMILES: CC(=O)NC1CNCc2cc(-c3cccc(-c4cccc(COc5cc(OCc6cncc(C#N)c6)c(CN[C@@](C)(CO)C(=O)O)cc5Cl)c4C)c3C)ccc21 (stereo partly drawn)
